# scFv variants of Ab-14 (heavy chain) against a SARS-CoV-2 spike peptide

All variants were tested on one target, the spike HR2 peptide PDVDLGDISGINAS (SARS-CoV-2).

Parent: Ab-14, a human scFv built as VH, a 15-residue (Gly4Ser)3 linker, VL. Only the CDRs of the heavy chain vary.
VH: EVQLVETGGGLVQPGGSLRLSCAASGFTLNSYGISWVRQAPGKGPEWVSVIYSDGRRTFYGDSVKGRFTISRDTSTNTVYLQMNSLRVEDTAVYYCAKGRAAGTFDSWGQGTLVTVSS
VL: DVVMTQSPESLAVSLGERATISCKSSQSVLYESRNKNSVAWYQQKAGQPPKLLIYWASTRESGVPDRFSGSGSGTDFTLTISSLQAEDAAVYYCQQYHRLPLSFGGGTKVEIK

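AAYL49 was designed without a model: most single CDR substitutions and a random sample of double and triple ones. AlphaSeq pools MATa yeast showing the antibodies with MATalpha yeast showing the peptide. Binding brings cells together so that they mate, and sequencing counts the barcode pairs among the diploids. Scores were corrected for input abundance and mapped to Kd with protein pairs of known affinity run in the same pool. Mating was done three times.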

Positions count from residue 1 of the parent VH; F59M puts M in place of F. All variants listed here change V64 of the VH, counted from its first residue. Affinities are written as log10 Kd with Kd in nM; a lower number is a better binder. A mean of the replicates is given; it leaves out those without a signal. "no signal" marks a missing value. The strain was present, yet no cells mated with the target were sequenced in any replicate, which points to weak or no binding. In this assay the parent's reference entry averaged 0.65; its copy inside this library read 4.11 (one replicate of three).

The variant F59M+V64D+K65N showed no signal (0 of 3 replicates).
The variant D62W+V64K+A102V showed 3.45 (1 of 3 replicates).
The variant Y32M+R57N+V64T showed no signal (0 of 3 replicates).
The variant D54L+S63T+V64M showed no signal (0 of 3 replicates).
The variant V50G+S53E+V64T showed 2.93 (1 of 3 replicates).
The variant S63N+V64A showed 1.74 (3 of 3 replicates).
The variant V64M+G103A showed no signal (0 of 3 replicates).
The variant F27V+V64H+A101N showed 5.32 (1 of 3 replicates).
The variant I51F+V64N+D106C showed 3.46 (2 of 3 replicates).
The variant L29F+V64M showed 3.85 (2 of 3 replicates).
The variant N30W+V64M+G103S showed 2.36 (3 of 3 replicates).
The variant Y32R+G33H+V64G showed 3.78 (1 of 3 replicates).
The variant S35E+V64E+K65P showed 4.51 (2 of 3 replicates).
The variant G26R+T28Q+V64I showed no signal (0 of 3 replicates).
The variant G55E+T58K+V64Y showed no signal (0 of 3 replicates).
The variant L29F+V64I+G103W showed no signal (0 of 3 replicates).
The variant R57G+V64N showed 4.93 (1 of 3 replicates).
The variant L29V+G55I+V64C showed no signal (0 of 3 replicates).
The variant L29F+V64L+G99D showed no signal (0 of 3 replicates).
The variant G33W+V64R+G103D showed no signal (0 of 3 replicates).
The variant R57F+V64I showed 2.77 (1 of 3 replicates).
The variant T58Y+V64R+R100D showed no signal (0 of 3 replicates).
The variant G55S+V64D+G99A showed no signal (0 of 3 replicates).
The variant I34Y+V64D+T104I showed 2.88 (1 of 3 replicates).
The variant R56M+V64K+T104L showed no signal (0 of 3 replicates).
The variant G26F+V64Y+D106V showed no signal (0 of 3 replicates).
The variant G33Q+V64M+D106A showed no signal (0 of 3 replicates).
The variant S53Q+V64Q+S107C showed 3.15 (1 of 3 replicates).
The variant N30V+V64M+T104H showed 1.89 (3 of 3 replicates).
The variant G33W+S35Q+V64K showed no signal (0 of 3 replicates).
The variant G55L+V64R+S107A showed 3.82 (2 of 3 replicates).
The variant F59Y+V64P+K65C showed 5.01 (2 of 3 replicates).
The variant G26K+V64K+G99F showed no signal (0 of 3 replicates).
The variant D54P+V64Y+A102R showed no signal (0 of 3 replicates).
The variant D54N+D62N+V64T showed 4.81 (1 of 3 replicates).
The variant I51P+V64S+A102D showed no signal (0 of 3 replicates).

Background: pairings of library AAYL49 with three empty control strains gave a value in 15% of cases (median 4.06, 5th percentile 2.83). Values in that range, when seen in few replicates, are hard to tell from nonspecific mating.

The measurements come from Engelhart et al. 2022 (doi:10.1038/s41597-022-01779-4) through the FLAb antibody collection.